pIC50: −log10 of the molar value.
Molecular target: PIK3CB (Human) (UniProt P42338)

Amino acid sequences for entries named in this document (tags omitted). A change or cut given only in a name is not applied to a line headed by its entry.
UniProt P42338: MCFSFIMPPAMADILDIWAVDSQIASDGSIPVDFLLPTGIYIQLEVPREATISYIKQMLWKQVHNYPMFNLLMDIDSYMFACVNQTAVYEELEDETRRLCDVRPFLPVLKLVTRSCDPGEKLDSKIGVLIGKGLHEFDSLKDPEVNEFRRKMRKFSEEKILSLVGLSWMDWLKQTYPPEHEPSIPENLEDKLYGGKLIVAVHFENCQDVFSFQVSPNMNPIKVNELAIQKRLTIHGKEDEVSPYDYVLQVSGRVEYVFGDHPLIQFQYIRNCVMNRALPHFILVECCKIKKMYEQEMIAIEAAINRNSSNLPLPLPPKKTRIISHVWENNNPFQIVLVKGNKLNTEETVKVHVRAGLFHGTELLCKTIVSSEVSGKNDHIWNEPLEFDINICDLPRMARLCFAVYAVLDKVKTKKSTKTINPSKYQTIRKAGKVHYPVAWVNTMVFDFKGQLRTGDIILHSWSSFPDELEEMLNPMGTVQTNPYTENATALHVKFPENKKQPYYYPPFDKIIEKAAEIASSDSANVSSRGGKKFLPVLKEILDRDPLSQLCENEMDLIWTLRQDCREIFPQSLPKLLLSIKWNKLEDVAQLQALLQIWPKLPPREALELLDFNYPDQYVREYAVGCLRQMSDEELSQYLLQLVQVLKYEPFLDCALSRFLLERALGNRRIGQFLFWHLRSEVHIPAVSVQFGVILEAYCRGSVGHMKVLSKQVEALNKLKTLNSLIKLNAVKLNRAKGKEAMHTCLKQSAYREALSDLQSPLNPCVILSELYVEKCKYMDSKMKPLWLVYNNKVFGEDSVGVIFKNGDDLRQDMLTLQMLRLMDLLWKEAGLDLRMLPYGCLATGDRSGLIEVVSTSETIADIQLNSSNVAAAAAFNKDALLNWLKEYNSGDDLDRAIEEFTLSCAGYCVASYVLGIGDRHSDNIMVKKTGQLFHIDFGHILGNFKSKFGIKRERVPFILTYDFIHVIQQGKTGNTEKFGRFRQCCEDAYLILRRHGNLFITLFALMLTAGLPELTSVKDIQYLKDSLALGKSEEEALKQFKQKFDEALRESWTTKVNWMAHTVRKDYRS

| pIC50 | Compound |
| --- | --- |
| < 4.30 | Nc1ncnc2[nH]nc(-c3cccc(Oc4ccccc4)c3)c12 |
| < 4.30 | Nc1ncnc2[nH]nc(-c3ccc(Oc4ccccc4)cc3)c12 |

— the Kinase Knowledgebase extract (Sharma et al. 2016)
